# Apparent affinities of Ab-14 variants for a coronavirus HR2 peptide

The measurements come from Engelhart et al. 2022 (doi:10.1038/s41597-022-01779-4) through the FLAb antibody collection.

Binding partner: SARS-CoV-2 spike HR2 peptide, sequence PDVDLGDISGINAS.

Ab-14 is the parent antibody, in scFv form: VH, then a 15-residue (Gly4Ser)3 linker, then VL. The light chain is unchanged in all variants.
VH: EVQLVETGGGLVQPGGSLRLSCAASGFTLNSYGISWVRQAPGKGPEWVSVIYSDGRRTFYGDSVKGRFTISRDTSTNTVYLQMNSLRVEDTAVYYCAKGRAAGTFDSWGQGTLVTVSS
VL: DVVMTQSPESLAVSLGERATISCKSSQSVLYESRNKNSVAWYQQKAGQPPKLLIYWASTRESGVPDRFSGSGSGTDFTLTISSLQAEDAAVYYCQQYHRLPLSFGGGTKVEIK

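The starting antibody came from a phage panning campaign against this peptide. Library AAYL49 holds single substitutions and randomly drawn double and triple substitutions in the CDRs. AlphaSeq pools MATa yeast showing the antibodies with MATalpha yeast showing the peptide. Pairs that bind mate more often; barcode pairs of the diploids are counted by sequencing. Each replicate has its own calibration line, from reference interactions of the BCL2 family. Mating was done three times.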

Positions count from residue 1 of the parent VH; F27W puts W in place of F. Every variant below is changed at L29 of the VH (sequential numbering). Each Kd is an estimate from the mating assay, the geometric mean of the replicates in which the pair was seen; lower is stronger. A pair that was not seen in any replicate is written "not detected"; this usually means weak binding, but a binder can also be missed. Nonspecific signal, from three strains lacking the peptide, appeared in 15% of pairings of library AAYL49, centred on 11 µM (5% of these signals below 680 nM); values are not corrected for it. Also given: how often the same scFv was detected with the empty control strains.

changes	apparent Kd	seen in	empty controls
F27W/L29C/S107T	not detected	0/3	0/9
L29T/R57N/G61N	not detected	0/3	1/9
L29F/T104K/F105I	not detected	0/3	0/9
L29G/V50H/D54Y	3.8 µM	1/3	3/9
L29R/Y32T/D62G	not detected	0/3	1/9
L29R/T104S	not detected	0/3	1/9
L29G/I34Q/S63L	5.5 µM	1/3	0/9
L29P/Y32H	42 µM	3/3	2/9
L29I/Y60K/G99D	not detected	0/3	0/9
L29W/G55S/D106V	36 µM	3/3	2/9
L29P/I51F/T58Q	36 µM	1/3	1/9
L29T/G99C	not detected	0/3	0/9
T28W/L29W/D106F	not detected	0/3	1/9
L29M/F59L/T104Q	not detected	0/3	0/9
L29V/S35Q/F59M	22 µM	1/3	0/9
L29A/F105A	6.3 µM	2/3	1/9
F27I/L29T/G99V	not detected	0/3	2/9
L29R/S63F/T104V	not detected	0/3	1/9
L29H/S31L/S107K	not detected	0/3	0/9
L29R/N30Q/S63K	1.3 nM	3/3	1/9
L29W/T58S/G61V	73 µM	3/3	5/9
L29R/G55A/F59W	not detected	0/3	0/9
L29D/S63N	43 µM	3/3	6/9
L29P/S53M/D54H	12 µM	1/3	4/9
L29Y/N30T/G61S	100 µM	1/3	3/9
L29E/A102G/S107H	not detected	0/3	0/9
L29W/A102I/G103S	not detected	0/3	0/9
L29T/R56T/Y60H	not detected	0/3	2/9
L29K/Y52L/F59S	69 µM	1/3	2/9
L29E/R56I	not detected	0/3	1/9
L29M/I51R/A101K	not detected	0/3	1/9
T28N/L29C/G55C	4.9 µM	1/3	3/9
L29V/N30H/F59L	not detected	0/3	0/9
G26H/L29R/G99D	24 µM	2/3	4/9
L29Y/S31T/G99Y	not detected	0/3	0/9
L29H/S53E/Y60W	not detected	0/3	1/9
L29E/G55M/T58N	67 µM	1/3	1/9
L29W/S35R/A102R	not detected	0/3	0/9
L29N/G33K/S35L	not detected	0/3	2/9
L29R/V50S/Y60S	not detected	0/3	1/9
L29P/S35W/K65P	5.8 µM	1/3	0/9
L29T/G33D/D106K	27 µM	1/3	2/9
L29V/S63I/K65D	4.5 µM	3/3	2/9
L29R/I34A/T58R	not detected	0/3	1/9
L29C/S53A	3.7 µM	1/3	0/9
L29Y/S53L/T58Q	2.9 µM	1/3	1/9
L29N/R100E	47 µM	3/3	6/9
G26Y/L29M/G33L	9.2 µM	1/3	3/9
T28W/L29P/S107L	not detected	0/3	0/9
L29G/V50Q	9.5 µM	1/3	2/9
L29F/G33K/K65L	920 nM	1/3	0/9
L29I/Y60N/S107A	760 nM	3/3	3/9
L29K/I34A/I51H	54 µM	1/3	1/9
L29H	86 µM	1/3	3/9
L29C/G55V/G61S	not detected	0/3	0/9
L29K/A102F	2.8 µM	1/3	2/9
L29S/I51A/S63I	not detected	0/3	1/9
L29H/T58W	180 µM	2/3	1/9
F27L/L29V/Y60Q	not detected	0/3	0/9
G26S/L29F/A101I	not detected	0/3	0/9
L29H/I51Y	14 µM	2/3	4/9
F27N/L29G/A102K	not detected	0/3	0/9
L29S/Y52L/V64Q	not detected	0/3	0/9
L29M/G61C	270 nM	3/3	2/9
L29F/F59H/G99T	not detected	0/3	0/9
F27D/L29N/F59T	2.2 µM	1/3	0/9
G26N/L29W/D62W	not detected	0/3	2/9
T28F/L29P/R57S	6.4 µM	1/3	1/9
L29V/Y52D/A102R	85 µM	2/3	5/9
L29Y/D106G	not detected	0/3	0/9
L29R/G55A/K65Q	52 µM	1/3	2/9
L29G/F59E/Y60F	5.4 µM	2/3	3/9
L29A/S107L	65 nM	3/3	2/9
L29Y/V64L	not detected	0/3	1/9
L29V/D54G/G55F	not detected	0/3	0/9
L29D/V50F/F105W	840 nM	1/3	1/9
L29Y/Y32W/K65V	24 µM	2/3	4/9

The 10 strongest on average among those seen in every replicate, once more:

| changes | apparent Kd | seen in | empty controls |
|---|---|---|---|
| L29R/N30Q/S63K | 1.3 nM | 3/3 | 1/9 |
| L29A/S107L | 65 nM | 3/3 | 2/9 |
| L29M/G61C | 270 nM | 3/3 | 2/9 |
| L29I/Y60N/S107A | 760 nM | 3/3 | 3/9 |
| L29V/S63I/K65D | 4.5 µM | 3/3 | 2/9 |
| L29W/G55S/D106V | 36 µM | 3/3 | 2/9 |
| L29P/Y32H | 42 µM | 3/3 | 2/9 |
| L29D/S63N | 43 µM | 3/3 | 6/9 |
| L29N/R100E | 47 µM | 3/3 | 6/9 |
| L29W/T58S/G61V | 73 µM | 3/3 | 5/9 |